Test results reported in US20150010527A1.
Read-outs that look alike come from different tables or passages of the source.

How the values were obtained:
Assay in all cases: cell-based or functional assay
[1] = target: plant expressed recombinant human DNase I (prh DNase I) (human) (UniProt P24855)
[2] = target: Pulmozyme (dornase alfa), recombinant human DNase I expressed in CHO cells (human) (UniProt P24855)
[3] = target: plant expressed recombinant human DNase I (prh DNase I) (human) (UniProt P24855); remark: listed apart in the source
[4] = target: Pulmozyme (dornase alfa), recombinant human DNase I expressed in CHO cells (human) (UniProt P24855); remark: listed apart in the source

- IC50 (µg/ml) of human G-actin for inhibition of DNase I catalytic activity, Methyl Green assay; Prh DNase I batch 1 [1]: 1.71 µg/mL
- IC50 (µg/ml) of human G-actin for inhibition of DNase I catalytic activity, Methyl Green assay; Prh DNase I batch 2 [1]: 1.85 µg/mL
- IC50 (µg/ml) of human G-actin for inhibition of DNase I catalytic activity, Methyl Green assay; Pulmozyme [2]: 0.546 µg/mL
- IC50 (µg/ml) of human G-actin for inhibition of DNase I catalytic activity, Methyl Green assay; Prh DNase I [3]: 1.82 µg/mL
- IC50 (µg/ml) of human G-actin for inhibition of DNase I catalytic activity, Methyl Green assay; Pulmozyme [4]: 0.687 µg/mL
Substance: human non-muscle actin (Cytoskeleton; cat No. APHL99), G-actin (from UniProt P60709 2-375)
